Test results as given in PubChem BioAssay AID2596 (National Center for Advancing Translational Sciences (NCATS), 2010).
The entries are a selection whose mix differs from that of the whole data set. Records with an inconclusive call do not appear. Activity calls are given as the source filed them. Calls follow the shape of the dose curve; as a rule, active = well fitted inhibition curve with a large enough effect; inconclusive = small, poorly fitted or top-dose-only effect, or effect the other way; inactive = flat fitted curve, though single readings scatter.

Protein sequences, listed by entry. Tags and fused reporters are not part of them. Lines headed by an entry give the natural chain unless they say otherwise; changes in a name come on top.
UniProt P04062: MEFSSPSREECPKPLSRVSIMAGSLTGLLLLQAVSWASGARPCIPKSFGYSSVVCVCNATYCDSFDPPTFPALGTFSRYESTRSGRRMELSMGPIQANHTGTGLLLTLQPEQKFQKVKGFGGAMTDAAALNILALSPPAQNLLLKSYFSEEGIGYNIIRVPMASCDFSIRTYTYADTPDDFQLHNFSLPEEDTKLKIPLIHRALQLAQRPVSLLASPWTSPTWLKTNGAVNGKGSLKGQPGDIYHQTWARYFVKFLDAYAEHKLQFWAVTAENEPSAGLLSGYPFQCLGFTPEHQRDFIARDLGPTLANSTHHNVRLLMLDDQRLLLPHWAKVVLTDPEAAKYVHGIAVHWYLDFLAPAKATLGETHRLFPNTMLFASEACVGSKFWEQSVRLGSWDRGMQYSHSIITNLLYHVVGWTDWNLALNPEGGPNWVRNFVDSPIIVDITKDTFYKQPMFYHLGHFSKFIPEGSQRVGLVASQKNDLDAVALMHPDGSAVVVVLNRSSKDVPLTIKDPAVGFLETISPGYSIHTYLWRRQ

target: Lysosomal acid glucosylceramidase (Homo sapiens) (UniProt P04062); test: qHTS Assay for Inhibitors and Activators of N370S glucocerebrosidase as a Potential Chaperone Treatment of Gaucher Disease: Purified N370S Glucocerebrosidase Cleavage of Glucosylceramide; conditions: purified N370S GCase
Source text: NIH Chemical Genomics Center [NCGC]
NIH Molecular Libraries Probe Production Centers Network [MLPCN]
Assay Submitter (PI): Wei Zheng
Glucocerebrosidase (GC) catalyzes the hydrolysis of beta-glucocerebroside to glucose and ceramide in lysosomes. Mutations in the glucocerebrosidase gene result in Gaucher disease, an autosomal recessive lysosomal storage disorder. Many of the mutations encountered in patients with Gaucher disease are missense alterations that may cause misfolding, decreased stability and/or mistrafficking of this lysosomal protein. […] These inhibitors include iminosugar analogs and three non-iminosugar inhibitors identified from a previous HTS of 62,000 compounds with the wild type recombinant enzyme. However, the enhancement of enzyme activity by the chaperone action of an enzyme inhibitor must be balanced against the direct inhibition of the enzyme. An enzyme activator could also function as a chaperone by binding to the enzyme and helping to correct its misfolding and mistrafficking. While activators for GC have not yet been identified, they may have better therapeutic potential than inhibitors. Therefore the discovery and development of chemical activators may provide a new strategy for the chaperone therapy.
We have optimized a new assay using N370S mutant GC derived from the spleen of a Gaucher patient. […]
This is an enzyme assay using glucosylceramide from soy (Avanti Polar Lipids Catalog #: 131304P) as the substrate and recombinant human glucocerebrosidase as the enzyme preparation. Upon hydrolysis of the substrate, the glucose product can be detected using the Amplex Red Glucose Oxidase Assay Kit (Invitrogen catalog #: A22189). The product of this reaction can be read with a fluorescence plate reader with an excitation at 573 nm and an emission at 610 nm. […] The AC50 values were determined from concentration-response data modeled with the standard Hill equation. […]
(7) Detect the assay plate in a ViewLux plate reader (PerkinElmer) with Ex=573 nm and Em=610nm. […]

Potency, active:
Cc1cc(N2CCOCC2)nc2ccc(NC(=O)C3CCCCC3)cc12 14.1 µM
COc1ccc(Cl)cc1Nc1nc(NCCO)nc(N2CCCC2)n1 31.6 µM
CCc1nnc(NC(=O)c2ccc(NS(=O)(=O)c3ccccc3)cc2)s1 7.94 µM
